Data as given in US20130089641A1.

Key:
[1] = fourth experiment: releasable iron in soymilk with 50 ppm ferric pyrophosphate and VC, NaVC, KVC or CaVC additive; details: soymilk with 50 ppm iron as ferric pyrophosphate
[2] = second experiment: releasable iron in soymilk with iron salts added by concentration gradients

ferric pyrophosphate
releasable iron concentration before adding the ascorbic acid iron [1]: 1.22 ppm
the most effective additive dosage for ascorbic acid iron [1]: 100 mg/100 ml
release promoting rate of iron ([1]; after/before adding the ascorbic acid iron): 561%
releasable iron concentration after adding the ascorbic acid iron ([1]; at the most effective additive dosage 100): 6.98 ppm
concentration of releasable iron ([2]; additive dosage of iron 30 ppm): 1.09 ppm
concentration of releasable iron ([2]; additive dosage of iron 50 ppm): 1.22 ppm
concentration of releasable iron ([2]; additive dosage of iron 75 ppm): 1.66 ppm
initially inhibiting concentration ([2]; point where releasable iron starts to rise with additive dosage): 50 ppm
